# How the values were obtained:
# Chains of the proteins cited; added tags and fusions are not shown. Lines headed by an entry give the natural chain unless they say otherwise; changes in a name come on top. A line that says so, or that is headed by a name, gives the form on record, which may keep a tag or linker.
# UniProt Q13422, with tags, fused parts or gaps DEL197-239 limits assumed: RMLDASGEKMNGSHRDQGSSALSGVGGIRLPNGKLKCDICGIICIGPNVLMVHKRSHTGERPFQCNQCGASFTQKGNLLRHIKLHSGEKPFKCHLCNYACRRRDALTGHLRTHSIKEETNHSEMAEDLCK
# UniProt Q96SW2, whole entry, stated change not applied: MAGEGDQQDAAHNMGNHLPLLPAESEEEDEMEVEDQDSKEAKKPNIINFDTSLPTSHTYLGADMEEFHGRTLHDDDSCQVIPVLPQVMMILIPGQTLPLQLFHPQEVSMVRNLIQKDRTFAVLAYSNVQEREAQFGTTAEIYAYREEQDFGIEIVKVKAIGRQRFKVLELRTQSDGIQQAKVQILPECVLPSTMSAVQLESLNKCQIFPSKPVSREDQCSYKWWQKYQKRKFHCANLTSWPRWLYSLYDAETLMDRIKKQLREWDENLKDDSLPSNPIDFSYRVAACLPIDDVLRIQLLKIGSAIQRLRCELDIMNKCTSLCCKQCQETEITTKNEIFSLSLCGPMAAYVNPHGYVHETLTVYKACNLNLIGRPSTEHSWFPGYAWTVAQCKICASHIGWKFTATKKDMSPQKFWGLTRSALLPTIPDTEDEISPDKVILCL
# [1] = target: T1, IKZF1Δ-CRBN complex formation (Homo sapiens, UniProt Q13422+Q96SW2, DEL197-239); test: CRBN-IKZF1Δ binding assay (TR-FRET); details: IKZF1Δ and DDB1ΔB-CRBN
# T1 construct: made in house; host or cells: Trichoplusia ni High-Five insect cells (baculovirus)
# [2] = target: IKZF1Δ-EGFP fusion protein (Homo sapiens, UniProt Q13422+Q96SW2, DEL197-239); test: IKZF1Δ-EGFP fusion protein degradation reporter assay (flow cytometry); details: HEK293T cells
structure (smiles),measurement,setting,value
"Cc1sc2c(c1C)C(c1ccc(Cl)cc1)=N[C@@H](CC(=O)NCCCCCCCCNC(=O)COc1cccc3c1C(=O)N(C1CCC(=O)NC1=O)C3=O)c1nnc(C)n1-2 (some centres unmarked) [dBET6, reference compound]",induction of IKZF1-CRBN complex formation / IKZF1 binding (in words),[1],do not induce IKZF1-CRBN complex formation
same,cellular IKZF1 degradation (in words),[2],relatively ineffective at promoting IKZF1 degradation

# From US11505560B2, “Heterobifunctional compounds with improved specificity” (DANA-FARBER CANCER INSTITUTE, INC., priority 2017, dated 2022)
